What is called IC50 is the concentration that inhibits the measured activity by half. A higher IC50 goes with lower potency.

This is an account of results in patent US20250270224A1, “POLYCYCLIC POLY(ADP-RIBOSE) POLYMERASE SELECTIVE INHIBITOR” (XUANZHU BIOPHARMACEUTICAL CO., LTD., priority 2022, published 2025).

The test system of this experiment is MDA-MB-436 cells. The experiment can be described thus: In-vitro cytological inhibitory activity (CelltiterGlo assay), 7 days culture. The experiment is classed as cell-based. Conditions: BRCA1 mutated human breast cancer cells, CTG. How it is done: The MDA-MB-436 cells were adherent cells, and the culture solution was DMEM+10% FBS+1% ITS-G+16 μg/ml glutathione.
Cells in the logarithmic growth phase were collected and counted by a […]. The cell viability was detected by a trypan blue exclusion method, and the cell viability was kept over 90%. The cell concentration was adjusted to be in a proper range, and 90 μL of cell suspension was added into a 96-well plate respectively.
The stock solutions of the test compounds were diluted by 10 times from 10 mM to 1 mM with DMSO, and then continuously gradiently diluted by 3 times with DMSO into a total of 9 concentrations.
10 μL of compound working stock solution was added into each well in a 96-well plate inoculated with cells (diluted by 10 times, the final concentration of DMSO was 0.1%). […]
Blank control: the 96-well plate was detected and read 0 hour after the addition. […]
A CTG reagent was thawed and the 96-well plate was equilibrated to room temperature for 30 minutes, 60 μL of reagent (Celltiter Glo assay kit) was added into each well and shaken by a shaker for 2 minutes to mix uniformly (in the dark), and the mixture was incubated at room temperature for 20 minutes (in the dark). Light signal values were read by a multi-functional microplate reader.
Background: Cellular ATP, detected with luciferase, serves as a proxy for viable cell number.

On to `CNC(=O)c1ccc(N2CCN(Cc3cc4ccn5c4c(c3F)NC(=O)C5C)CC2)c(F)n1` (stereo not shown) [Compound 3], for which the IC50 came out at 13.3 nM.
